A short description of data set [1]: Plasma 1R1 (insulin) levels in a diabetic dog after administration of insulin. The data set is classed as in vivo. Conditions: 0.5 u/kg intramuscular injection. The procedure:
An enterocoated capsule was prepared for oral administration of insulin to a diabetic dog.

For data set [2] the following is noted: during 60 minutes.
The conditions of data set [3]: in the presence of deoxycholic acid and soybean trypsin inhibitor; cited from earlier work.

On to Insulin, for which the Insulin is 0 μm/ml in data set [1] (0 min); 73 μm/ml in data set [1] (10 min); 76 μm/ml in data set [1] (20 min); 213 μm/ml in data set [1] (30 min); 220 μm/ml in data set [1] (45 min); 81 μm/ml in data set [1] (60 min). Also, the Insulin was determined as 120 μm/ml in data set [1] (75 min); 61 μm/ml in data set [1] (90 min); 50 μm/ml in data set [1] (120 min); 18 μm/ml in data set [1] (150 min); 25 μm/ml in data set [1] (180 min). The “absorbed from the intestinal lumen into the blood stream” value in data set [2] is listed as 5-10%. Further, in data set [3], the “absorption from the intestine” value is recorded as “effectively absorbed”.
